Assay results taken from paper PMC4975464, “FITC Conjugation Markedly Enhances Hepatic Clearance of N-Formyl Peptides” (PLoS ONE, 2016).

Tests used:
mouse LSECs (mLSECs) = assay: Endocytosis competition of FITC-fNLPNTL uptake, fluorescence microscopy; format: cell-based; details: 20 μg/ml, 60 min at 37°C, serum-free medium
Text: Fig 7 Competitive effect of FSA on FITC-fNLPNTL uptake by human and murine LSECs. Primary cultures of hLSECs (A) and mLSECs (B) were established on Permanox chamber slides coated with human fibronectin. […] Uptake of FITC-fNLPNTL was inhibited by the presence of FSA in hLSECs (C) to a higher extent than seen in mLSECs (D).

mouse Heps (mHeps) = assay: as above; details: 20 μg/ml, 60 min at 37°C, serum-free medium

Substance: Fluorescein-isothiocyanate- N-Formyl-Nle-Leu-Phe-Nle-Tyr-Lys [FITC-fNLPNTL]
- uptake in isolated LSECs (mouse LSECs (mLSECs)): high uptake
- uptake in isolated liver parenchymal cells (hepatocytes) (mouse Heps (mHeps)): high uptake
